Here are results for one substance from publication PMC4550811.

This data set has as its system Nc1ncnc2c1ncn2[C@@H]1O[C@H](COP(=O)(O)OP(=O)(O)OP(=O)(O)O)[C@@H](O)[C@H]1O. The data set is described as follows: purified protein. Conditions: apparent, peptide co-substrate CylLS 100 μM (not saturating), 1 μM CylM, 20 mM MgCl2, 2 mM DTT, 50 mM HEPES pH 7.5, 25 °C.

Regarding CylM (Enterococcus faecalis), the Km is 99 ± 6 µM and the kcat was found to be 0.0683 ± 0.0017 s⁻¹.

Usually Km stands for the concentration of substrate that gives half-maximal velocity. One may read the kcat as the maximal rate divided by the concentration of active sites.
